Measured values taken from patent US9550775B2, “Substituted triazolopyridines and methods of use thereof” (GENENTECH, INC., priority 2013, dated 2017).
pIC50: −log10 of the molar value.

By UniProt entry, the sequences of proteins in these tests, tags left out. Chains listed by the source or under a name are the forms on record and can include a tag or linker.
UniProt Q15858, other isoform, or with tags, fused parts or gaps: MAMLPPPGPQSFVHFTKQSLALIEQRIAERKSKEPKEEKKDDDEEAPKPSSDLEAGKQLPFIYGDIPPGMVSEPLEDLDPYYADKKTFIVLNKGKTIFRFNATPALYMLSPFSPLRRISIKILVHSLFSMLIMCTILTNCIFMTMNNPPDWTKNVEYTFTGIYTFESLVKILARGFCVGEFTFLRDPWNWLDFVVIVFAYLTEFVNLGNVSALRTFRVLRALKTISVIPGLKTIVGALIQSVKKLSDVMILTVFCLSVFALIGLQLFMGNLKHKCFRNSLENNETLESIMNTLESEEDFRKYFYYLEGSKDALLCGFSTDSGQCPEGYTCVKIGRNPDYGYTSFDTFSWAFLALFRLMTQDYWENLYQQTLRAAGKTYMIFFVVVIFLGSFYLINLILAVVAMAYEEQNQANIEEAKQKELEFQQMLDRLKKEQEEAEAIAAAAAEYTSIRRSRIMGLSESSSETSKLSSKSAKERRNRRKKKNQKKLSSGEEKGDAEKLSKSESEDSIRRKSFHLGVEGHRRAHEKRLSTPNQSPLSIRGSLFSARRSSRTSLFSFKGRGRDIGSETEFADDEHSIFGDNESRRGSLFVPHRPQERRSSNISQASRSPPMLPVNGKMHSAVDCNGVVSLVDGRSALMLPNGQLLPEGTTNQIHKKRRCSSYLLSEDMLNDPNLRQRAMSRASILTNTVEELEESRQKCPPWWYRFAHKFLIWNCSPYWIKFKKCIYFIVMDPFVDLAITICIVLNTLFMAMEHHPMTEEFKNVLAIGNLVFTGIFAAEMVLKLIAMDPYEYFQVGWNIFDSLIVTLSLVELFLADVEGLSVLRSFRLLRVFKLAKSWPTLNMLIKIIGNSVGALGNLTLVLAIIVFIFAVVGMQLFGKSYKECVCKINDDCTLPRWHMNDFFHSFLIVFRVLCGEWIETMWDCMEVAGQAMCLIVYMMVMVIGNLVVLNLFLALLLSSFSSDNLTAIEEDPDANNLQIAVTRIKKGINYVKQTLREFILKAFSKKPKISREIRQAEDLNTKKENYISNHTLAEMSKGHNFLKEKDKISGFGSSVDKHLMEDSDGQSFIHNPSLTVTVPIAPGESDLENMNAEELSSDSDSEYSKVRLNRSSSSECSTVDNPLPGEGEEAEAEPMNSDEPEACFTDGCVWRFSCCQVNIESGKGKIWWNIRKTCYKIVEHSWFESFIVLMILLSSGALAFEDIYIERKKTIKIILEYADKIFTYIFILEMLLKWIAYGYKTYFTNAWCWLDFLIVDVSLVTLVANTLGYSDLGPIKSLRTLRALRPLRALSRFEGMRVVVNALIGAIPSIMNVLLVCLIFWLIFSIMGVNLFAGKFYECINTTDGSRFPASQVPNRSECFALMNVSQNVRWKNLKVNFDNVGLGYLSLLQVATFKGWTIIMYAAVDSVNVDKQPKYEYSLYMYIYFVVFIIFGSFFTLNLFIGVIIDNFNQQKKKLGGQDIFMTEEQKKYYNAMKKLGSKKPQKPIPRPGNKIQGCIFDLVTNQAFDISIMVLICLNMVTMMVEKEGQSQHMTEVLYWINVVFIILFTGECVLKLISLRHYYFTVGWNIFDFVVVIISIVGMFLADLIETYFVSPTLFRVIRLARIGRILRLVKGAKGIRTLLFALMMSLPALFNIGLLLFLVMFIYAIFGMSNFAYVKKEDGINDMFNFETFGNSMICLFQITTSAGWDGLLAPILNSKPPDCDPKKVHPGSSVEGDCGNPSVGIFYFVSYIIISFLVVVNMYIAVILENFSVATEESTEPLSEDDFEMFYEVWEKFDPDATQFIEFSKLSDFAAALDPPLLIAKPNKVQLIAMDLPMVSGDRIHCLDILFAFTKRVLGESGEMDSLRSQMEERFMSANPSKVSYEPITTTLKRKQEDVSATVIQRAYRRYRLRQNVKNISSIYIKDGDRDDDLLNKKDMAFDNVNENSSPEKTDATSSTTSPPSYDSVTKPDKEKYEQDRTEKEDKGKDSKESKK

Molecular target: hNav1.7 (Homo sapiens (Human), UniProt Q15858)
Assay: Tritiated sulfonamide competitive binding to membranes from cells expressing hNav1.7 and the β1 subunit;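 note: displacement of the tritiated ligand from recombinant cell membranes, read by liquid scintillation counting of filter-bound radioactivity, nonspecific binding defined with 1 µM unlabelled compound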
Settings: 100 pM [3H]compound, 18 h, room temperature; inactivated state of NaV1.7 membrane binding; read-out: NaV1.7 Ligand Binding Assay (IC50)

Row | Compound | pIC50
1 | CC1(C)[C@H]2CC[C@H](COc3cc4nnc(NS(=O)(=O)C5CC5)n4cc3C3CC3)[C@@H]1C2 [Example 29, N-(6-cyclopropyl-7-(((1S,2S,5S)-6,6-dimethylbicyclo[3.1.1]-heptan-2-yl)methoxy)-[1,2,4]triazolo[4,3-a]pyridin-3-yl)cyclopropanesulfonamide] | 8.47
2 | CS(=O)(=O)Nc1nnc2cc(OCC34CC5CC(CC(C5)C3)C4)c(C3=CCCC3)cn12 [Example 12, N-(7-(adamantan-1-ylmethoxy)-6-(cyclopent-1-en-1-yl)-[1,2,4]triazolo[4,3-a]pyridin-3-yl)methanesulfonamide] | 6.26
3 | O=S(=O)(Nc1nnc2cc(COc3ccc(Cl)c(C(F)(F)F)c3)c(C3CC3)cn12)C1CC1 [Example 101, N-(7-((4-chloro-3-(trifluoromethyl)phenoxy)methyl)-6-cyclopropyl-[1,2,4]triazolo[4,3-a]pyridin-3-yl)cyclopropanesulfonamide] | 7.96
4 | COc1ncccc1-c1cn2c(NS(C)(=O)=O)nnc2cc1OCC12CC3CC(CC(C3)C1)C2 [Example 10, N-(7-(adamantan-1-ylmethoxy)-6-(2-methoxypyridin-3-yl)-[1,2,4]-triazolo[4,3-a]pyridin-3-yl)methanesulfonamide] | 6.20
5 | COc1ncccc1-c1cn2c(NS(C)(=O)=O)nnc2cc1OC[C@H]1CC[C@H](C)CC1 [Example 34] | 6.88
6 | CS(=O)(=O)Nc1nnc2cc(OCC34CC5CC(CC(C5)C3)C4)c(C3=CCCC3)cn12 [Example 67] | 6.27
7 | O=S(=O)(Nc1nnc2cc(OCC34CC5CC(CC(C5)C3)C4)c(Br)cn12)N1CCOCC1 [Example 64, N-(7-((3r,5r,7r)-adamantan-1-ylmethoxy)-6-bromo-[1,2,4]triazolo-[4,3-a]pyridin-3-yl)morpholine-4-sulfonamide] | 6.68
8 | CS(=O)(=O)Nc1nnc2cc(COc3ccc(Cl)c(C(F)(F)F)c3)c(C3CC3)cn12 [Example 45, N-(7-((4-chloro-3-(trifluoromethyl)phenoxy)methyl)-6-cyclopropyl-[1,2,4]triazolo[4,3-a]pyridin-3-yl)methanesulfonamide] | 8.15
9 | O=S(=O)(Nc1nnc2cc(COc3cc(Cl)cc(OC(F)(F)F)c3)c(C3CC3)cn12)N1CCC1 [Example 99, N-(7-((3-chloro-5-(trifluoromethoxy)phenoxy)methyl)-6-cyclopropyl-[1,2,4]triazolo[4,3-a]pyridin-3-yl)azetidine-1-sulfonamide] | 8.15
10 | COc1ncccc1-c1cn2c(NS(C)(=O)=O)nnc2cc1OCC12CC3CC(CC(C3)C1)C2 [Example 65, N-(7-((3r,5r,7r)-adamantan-1-ylmethoxy)-6-(2-methoxypyridin-3-yl)-[1,2,4]triazolo[4,3-a]pyridin-3-yl)methanesulfonamide] | 6.19
11 | O=S(=O)(Nc1nnc2cc(OCC3CC4C5CCC(C5)C4C3)c(C3CC3)cn12)C1CC1 (centres unmarked) [Example 81] | 8.40
12 | O=S(=O)(Nc1nnc2cc(OCC34CC5CC(CC(C5)C3)C4)c(Br)cn12)N1CCOCC1 [Example 9] | 6.69
13 | CS(=O)(=O)Nc1nnc2cc(COc3ccc(Cl)c(C(F)(F)F)c3)c(C3CC3)cn12 [Example 100, N-(7-((4-chloro-3-(trifluoromethyl)phenoxy)methyl)-6-cyclopropyl-[1,2,4]triazolo[4,3-a]pyridin-3-yl)methanesulfonamide] | 8.15
14 | COc1ncccc1-c1cn2c(NS(C)(=O)=O)nnc2cc1OC[C@H]1CC[C@H](C)CC1 [Example 89] | 6.89
15 | O=S(=O)(Nc1nnc2cc(COc3ccc(Cl)c(C(F)(F)F)c3)c(C3CC3)cn12)C1CC1 [Example 46, N-(7-((4-chloro-3-(trifluoromethyl)phenoxy)methyl)-6-cyclopropyl-[1,2,4]triazolo[4,3-a]pyridin-3-yl)cyclopropanesulfonamide] | 7.97
16 | CC1(C)[C@H]2CC[C@H](COc3cc4nnc(NS(=O)(=O)C5CC5)n4cc3C3CC3)[C@@H]1C2 [Example 84] | 8.52
17 | O=S(=O)(Nc1nnc2cc(COc3cc(Cl)cc(OC(F)(F)F)c3)c(C3CC3)cn12)N1CCC1 [Example 44] | 8.13
